The record followed here is PubChem BioAssay AID739 (SRMLSC, 2007).

The entries are a selection whose mix differs from that of the whole data set. The source made the active and inactive calls. No stated cut-off is given here; in the data, active means inhibition above about 30%; inactive means the rest.

In general, inhibition refers to the relative decrease from the control value, in per cent.

The nature of this test: phenotypic screen on post-Golgi transport, primary screen (AID 739).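 Further: yeast cells grown in 1536-well plates; yeast grown about 18 h at 30C before absorbance read.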 The following applies: post-Golgi transport phenotypic cell assay; at 10 µM; hits give high values.
As for `CCOP(=O)(Nc1ccccc1)OCC`, the inhibition is inactive: 7.47%. Next, `CC(C)CC(=O)NC(Sc1ccc(Cl)cc1)C(Cl)(Cl)Cl` (centres undefined): inactive: -7.98%; `Cc1c2non([O-])c-2c(C)[n+](=O)[n+]1[O-]`: inactive: 1.46%. The result for `Oc1ccccc1CNc1ccccn1` reads inactive: -6.63%; that for `CC(=O)N1C2C3N(C(C)=O)C1C1N(C(C)=O)C(C(N1C(C)=O)N3C(C)=O)N2C(C)=O`, inactive: -1.41%.

As to `O=[N+]([O-])c1cccc2n[nH]nc12`, the inhibition was inactive: -4.25%. For `CCc1nc2c(n1)c1c(non1O)c1c2no[n+]1[O-]`, the inhibition was inactive: 1.77%. `CC1CCN(C(=O)Oc2c(Cl)cc(Cl)c3cccnc23)CC1`: the inhibition was inactive: -0.95%. The result for `O=C(OC1CN2CCC1CC2)c1cccc(Cl)c1` (centres undefined) reads inactive: 3.98%; that for `O=P(Nc1nccs1)(c1ccccc1)c1ccccc1`, inactive: 1.24%. The result for `c1nnnn1CCn1cnnn1` reads inactive: -6.34%.

Turning to `O=P1(Nc2nc3ccc(Cl)cc3s2)COc2ccccc2O1` (centres undefined), the inhibition was inactive: 2.96%. The result for `CCOC(=O)NC(Sc1ccccc1)C(Cl)(Cl)Cl` (centres undefined) reads inactive: -0.48%. Next, `COC(=O)c1cc2c(s1)N=C(c1ccccc1)N(C)P2(=O)N1CCOCC1` (centres undefined): inactive: 17.5%; `CCC(=O)N1C2C3N(C(=O)CC)C1C1N(C(=O)CC)C(C(N1C(=O)CC)N3C(=O)CC)N2C(=O)CC`: inactive: -1.25%. The result for `O=P(Nc1nccs1)(c1ccccc1)c1nc2ccccc2s1` (centres undefined) reads inactive: -1.08%; that for `CCOP1(=S)c2c(C)nn(CCC#N)c2N=C(c2ccccc2F)N1C` (centres undefined), inactive: 6.36%; that for `O=[N+]([O-])c1ccc2c(c1)nnn2O`, inactive: -3.97%. In the case of `CCOP1(=S)c2c(C)nn(CCC#N)c2N=C(c2ccc(F)cc2)N1C` (centres undefined), the inhibition was inactive: 13.2%.

As to `Cc1cccc(OCC(=O)OC2CN3CCC2CC3)c1` (centres undefined), the inhibition was inactive: 4.23%. Next, `O=P1(Nc2ccccn2)COc2ccccc2OC1`: inactive: -1.83%; `Clc1n[nH]nc1-c1nn[nH][15n]1`: inactive: 4.52%; `Cc1nn(-c2ccccc2)c2c1P(=O)(N1CCOCC1)N(C)C(c1ccccc1)=N2` (centres undefined): inactive: 3.04%. In the case of `Cc1ccc(OCC(=O)OC2CN3CCC2CC3)cc1` (centres undefined), the inhibition was inactive: 12.2%. Next, `O=P1(Nc2ccc(Br)cn2)COc2ccccc2OC1`: inactive: 0.66%; `COP1(=S)c2c(C)nn(CCC#N)c2N=C(c2ccc(F)cc2)N1C` (centres undefined): inactive: -4.73%; `O=C(COc1ccccc1)OC1CN2CCC1CC2` (centres undefined): inactive: 5.79%. In the case of `O=C(OC1CN2CCC1CC2)C12CC3CC(CC(C3)C1)C2` (centres undefined), the inhibition was inactive: -0.18%.

With `CCN(CC)C(=S)SC(NC=O)C(Cl)(Cl)Cl` (centres undefined), the inhibition was inactive: -3.12%.
